Yeast mating assay B: variants of the scFv Ab-14

From the AlphaSeq antibody data of Li et al. 2023 (doi:10.1038/s41467-023-39022-2), copy in the FLAb collection.

All variants were tested on one target, the spike HR2 peptide PDVDLGDISGINAS (SARS-CoV-2).

Parent: Ab-14, a human scFv built as VH, three GGGGS repeats, VL. Only the CDRs of the light chain vary.
VH: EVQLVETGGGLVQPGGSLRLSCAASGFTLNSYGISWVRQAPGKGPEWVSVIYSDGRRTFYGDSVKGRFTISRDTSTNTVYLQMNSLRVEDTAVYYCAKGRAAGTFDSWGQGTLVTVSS
VL: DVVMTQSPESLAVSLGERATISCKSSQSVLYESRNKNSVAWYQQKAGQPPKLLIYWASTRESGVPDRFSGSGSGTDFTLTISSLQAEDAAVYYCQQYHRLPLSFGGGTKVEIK

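The starting antibody came from a phage panning campaign against this peptide. These sequences belong to a second round, designed from the earlier measurements on random variants of the parent. Their group label is 14L_En_Gibbs (En: ensemble of fine-tuned language models; Gibbs: Gibbs sampling). AlphaSeq pools MATa yeast showing the antibodies with MATalpha yeast showing the peptide. After mating in shaken culture at 30 °C for 16 h, diploids were selected and their barcode pairs sequenced. Scores were corrected for input abundance and mapped to Kd with protein pairs of known affinity run in the same pool. Mating was done six times.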

The parent's light chain CDRs are KSSQSVLYESRNKNSVA, WASTRES, QQYHRLPLS; each variant's own CDRs replace them letter for letter. Affinities are written as log10 Kd with Kd in nM; a lower number is a better binder. An entry "n.d." has no value in the source: the pair was not observed among the diploids in that replicate. This suggests poor binding but is not conclusive. The range of this assay differs from that of the first round, and the authors advise against merging the two. Nonspecific signal, from three strains lacking the peptide, appeared in 4% of pairings of all light chain designs, centred on 2.64 (5% of these signals below 1.59); values are not corrected for it. For each scFv, signals with the empty controls are counted beside the result, with their mean in brackets. In the paper, a design with two or fewer of six values counts as a poor binder.

| # | CDR-L1 | CDR-L2 | CDR-L3 | log10 Kd, replicates | control signals |
|---|---|---|---|---|---|
| 1 | QLFSRWGQLTEIRQAVA | DATEVID | QQYMHLPLT | n.d. / 1.37 / 1.45 / 1.15 / 1.27 / 1.92 | 0 of 18 |
| 2 | KLSMWTYGPTEDKYNVA | NDEMRWQ | QQYDKLPLI | 2.07 / n.d. / n.d. / n.d. / n.d. / 2.34 | 0 of 18 |
| 3 | HLGIQTQGEMVSTQPVA | QESTRAK | QQYFRLPLI | 1.08 / 1.02 / 0.53 / 0.60 / 0.83 / 0.77 | 1 of 18 (2.68) |
| 4 | KLQWQQYGENAQEAAIA | NEQTVAQ | QQYSKLPLT | 1.01 / n.d. / n.d. / 0.85 / 1.11 / 1.16 | 0 of 18 |
| 5 | KLGMWTYGPTEAKYNVA | EDEMRWY | QQYDRLPLI | n.d. / n.d. / n.d. / n.d. / n.d. / n.d. | 0 of 18 |
| 6 | QIAGSEEEVGIHKNSIA | ENTVRPE | QQYLRLPLH | 0.66 / 0.81 / 1.17 / 0.65 / 0.41 / 1.10 | 0 of 18 |
| 7 | VFSGQWDLNTTVNSAVA | NVSERML | QQYNRLPLM | 1.15 / 1.20 / 1.03 / 1.73 / 1.50 / 1.37 | 0 of 18 |
| 8 | MMSMMPNEPTIDSNAIA | DHVQRNT | QQYDRLPLS | n.d. / n.d. / n.d. / 0.73 / n.d. / n.d. | 1 of 18 (0.14) |
| 9 | KWQNDSLFMGQYMNNIA | NTSLRTE | QQYYRLPLT | 0.43 / 0.48 / 0.56 / 0.34 / 0.41 / 0.54 | 1 of 18 (2.17) |
| 10 | VFQQQWDGHTDTNNSVA | NVDHKME | QQYYRLPLL | 0.79 / 0.98 / 0.93 / 0.67 / 0.99 / 1.09 | 3 of 18 (3.02) |
| 11 | QLQLQPLFGANAQHSIA | DVSEKDM | QQYARLPLH | 1.17 / 1.05 / 1.33 / 1.02 / 1.28 / 0.89 | 0 of 18 |
| 12 | KLQWQQYGENQQEAAIA | NETTVAQ | QQYSKLPLT | 1.24 / 0.92 / 1.34 / 0.99 / 0.91 / 1.00 | 0 of 18 |
| 13 | KMDLYTQQGNLPRNSIA | AATMRWE | QQYSHIPLM | 1.74 / 2.09 / 2.65 / 1.50 / 1.35 / 1.62 | 1 of 18 (2.27) |
| 14 | KMKQSIEGNPKNWNSIA | DVDSTTE | QQYARLPLF | 0.12 / 0.27 / 0.05 / 0.03 / -0.08 / 0.72 | 2 of 18 (3.56) |
| 15 | ALSQNGPQQHGMNDSIA | HSDQRLA | QQYYHLPLA | 1.07 / 0.55 / 0.94 / 0.90 / 0.50 / 1.13 | 0 of 18 |
| 16 | QVFAFNEHLKDQQQAMA | NATMRDQ | QQYERLPLS | 1.61 / 1.46 / 0.96 / 1.53 / 0.88 / 1.55 | 1 of 18 (1.93) |
| 17 | QLESLMGESYAEKENIA | EGEQRFS | QQYVRLPLH | n.d. / n.d. / 1.61 / 2.39 / 1.79 / 1.77 | 0 of 18 |
| 18 | RIQEQMQKPDNIGQNVA | EAQTVID | QQYAHLPLI | 1.57 / 0.95 / 1.52 / 1.08 / 1.62 / 1.80 | 0 of 18 |
| 19 | QLGKNQVGDTLMQHAIA | HDALRVD | QQYFRLPLL | 0.34 / 0.39 / 0.08 / 0.25 / 0.26 / 0.45 | 1 of 18 (2.75) |
| 20 | SVTRYTDENGLKMNSVA | GAAERMT | QQYHRLPLT | -0.39 / -0.77 / -0.37 / -0.48 / -0.48 / 0.28 | 0 of 18 |
| 21 | HLQEQSFMGQKDYSSMA | NTECKYN | QQYARLPLM | 0.48 / 0.74 / 0.71 / 1.06 / 0.71 / 1.04 | 1 of 18 (1.38) |
| 22 | YMSMYLDMQDSIQCGVA | DATTRNA | QQYQRLPLS | 0.65 / 0.62 / 1.43 / 0.66 / 1.15 / 1.38 | 1 of 18 (2.36) |
| 23 | ALRQKGFELHGDRQNIA | HSDTRAA | QQYSMLPLA | 0.41 / -0.21 / 0.04 / -0.46 / 0.15 / 0.11 | 1 of 18 (0.97) |
| 24 | QISVFELQGTGWAQNIA | QADHRTE | QQFARLPLV | 1.69 / 1.49 / 0.79 / 0.81 / 1.19 / 1.08 | 0 of 18 |
| 25 | HVKEDLNMGMKFQSSVA | SGAHREH | QQYYRLPLG | 0.62 / 0.48 / 0.58 / 0.39 / 0.69 / 1.05 | 3 of 18 (3.66) |
| 26 | LIMKFMSQEGSARNNVA | GDTKLAQ | QHYHRLPLS | n.d. / n.d. / 1.14 / n.d. / n.d. / n.d. | 0 of 18 |
| 27 | FLAGALDQDGLIKNNIA | QDNLLEN | QQYERLPLG | n.d. / n.d. / n.d. / n.d. / n.d. / n.d. | 0 of 18 |
| 28 | KIDGQTSYDNGRERAIA | DVTIRFW | QQYARLPLL | 1.92 / 1.33 / 2.48 / n.d. / 2.13 / 2.21 | 0 of 18 |
| 29 | HISANMWMQGSQWDAVA | QGDIANN | QQYARLPLS | 1.07 / 0.45 / 0.85 / 0.68 / 0.80 / 0.80 | 0 of 18 |
| 30 | KIRVHNLMFSQNESSIA | GQSVRSE | QQYYHLPLT | 1.02 / 1.14 / 1.17 / 1.29 / 1.02 / 1.98 | 1 of 18 (3.66) |
| 31 | HIQEVDHQVENKYGNVA | DASEYVA | QQYFQLPIS | 1.22 / 0.88 / 0.82 / 0.80 / 0.55 / 1.52 | 0 of 18 |
| 32 | NLGGEDFNDTRGMKAVA | DVSEVGD | QHYSRLPLS | 0.79 / 1.27 / 1.01 / -0.09 / 1.32 / 2.08 | 0 of 18 |
| 33 | NVGGEDPGQWGMKDSIA | GSSLRAE | QQYWRLPLL | 0.36 / 0.43 / 0.29 / 0.16 / 0.26 / 0.35 | 0 of 18 |
| 34 | KLAQGIYEPVRKSNNIA | EASHVGD | QQYERLPLE | n.d. / n.d. / n.d. / 1.31 / n.d. / 0.83 | 0 of 18 |
| 35 | HVAQTRQEDISNKNNVA | EGSVVIS | QQYSKLPFS | 0.73 / 0.97 / 0.89 / 0.78 / 0.84 / 0.97 | 1 of 18 (2.80) |
| 36 | KLANYMYQGGLVQANVA | EAKELWE | QQYYHLPLA | n.d. / n.d. / n.d. / 2.11 / n.d. / n.d. | 0 of 18 |
| 37 | NLSMELEDMGVKTGSIA | ENQLTEY | QQYARLPLM | n.d. / n.d. / n.d. / n.d. / n.d. / n.d. | 0 of 18 |
| 38 | RIQMGDLEGRTAWNNIA | NMEESYR | QQYVRLPLY | 0.52 / 0.44 / 0.19 / 0.27 / 0.35 / 0.44 | 0 of 18 |
| 39 | KVQSEALGGNQYTSNIA | GQSVAMP | QQYERLPLD | 0.45 / 0.16 / 0.03 / 0.15 / 0.28 / 0.06 | 1 of 18 (2.30) |
| 40 | KLDQKNRWNGMANYNVA | DSNHRLD | QQYHRLPLI | 0.88 / 0.53 / 0.57 / 0.55 / 0.83 / 0.95 | 2 of 18 (3.01) |

Extract of 5 entries:

CDR-L1	CDR-L2	CDR-L3	log10 Kd, replicates	control signals
KVQSEALGGNQYTSNIA	GQSVAMP	QQYERLPLD	0.45 / 0.16 / 0.03 / 0.15 / 0.28 / 0.06	1 of 18 (2.30)
QIAGSEEEVGIHKNSIA	ENTVRPE	QQYLRLPLH	0.66 / 0.81 / 1.17 / 0.65 / 0.41 / 1.10	0 of 18
HISANMWMQGSQWDAVA	QGDIANN	QQYARLPLS	1.07 / 0.45 / 0.85 / 0.68 / 0.80 / 0.80	0 of 18
QISVFELQGTGWAQNIA	QADHRTE	QQFARLPLV	1.69 / 1.49 / 0.79 / 0.81 / 1.19 / 1.08	0 of 18
KLSMWTYGPTEDKYNVA	NDEMRWQ	QQYDKLPLI	2.07 / n.d. / n.d. / n.d. / n.d. / 2.34	0 of 18